The results in this text go back to patent publication US8816078B2, “Acidic gas removal by aqueous amine solvents” (Board of Regents, The University of Texas System, priority 2010, dated 2014).

A short description of the data set: Solubility and solids precipitation limits of amines in water. Type of data set: physicochemical.
The mark [1] stands for this setting: rich conditions, ambient temperature.

For the molecule `C[C@@H]1CN[C@@H](C)CN1` [2,5-trans-dimethyl piperazine], the “amine concentration above which solids precipitate” value under setting [1] is “exceeds 1 m”.

Take `CC(C)(N)CO` [2-amino-2-methyl-1-propanol]: the “amine concentration above which solids precipitate” value under setting [1] is reported as “exceeds 5 m”.

As to `NCCS(=O)(=O)O` [Taurine, 2-amino-ethanesulfonic acid], the solids precipitation result by setting is: (2 m, loaded with 0.5 moles CO2/mole taurate, ambient temperature) “precipitated solids”; (3.94 m, loaded with 0.4 moles CO2/mole taurate, 23° C.) “precipitated solids”. For the same molecule, the “concentration limit by precipitation of solids” value (partially neutralized by KOH, rich conditions) was “about 3 M”. The “amine concentration above which solids precipitate” value under setting [1] is “greater than 2 m”.
